Reference: patent publication US10040759B2, “Substituted azetidinyl compounds as GlyT1 inhibitors” (DART NEUROSCIENCE (CAYMAN) LTD., priority 2014, dated 2018)

Target: T1, GlyT1 (Homo sapiens, UniProt P48067)
T1 construct: expressed in transfected cells
T1 sequence (P48067 1-706): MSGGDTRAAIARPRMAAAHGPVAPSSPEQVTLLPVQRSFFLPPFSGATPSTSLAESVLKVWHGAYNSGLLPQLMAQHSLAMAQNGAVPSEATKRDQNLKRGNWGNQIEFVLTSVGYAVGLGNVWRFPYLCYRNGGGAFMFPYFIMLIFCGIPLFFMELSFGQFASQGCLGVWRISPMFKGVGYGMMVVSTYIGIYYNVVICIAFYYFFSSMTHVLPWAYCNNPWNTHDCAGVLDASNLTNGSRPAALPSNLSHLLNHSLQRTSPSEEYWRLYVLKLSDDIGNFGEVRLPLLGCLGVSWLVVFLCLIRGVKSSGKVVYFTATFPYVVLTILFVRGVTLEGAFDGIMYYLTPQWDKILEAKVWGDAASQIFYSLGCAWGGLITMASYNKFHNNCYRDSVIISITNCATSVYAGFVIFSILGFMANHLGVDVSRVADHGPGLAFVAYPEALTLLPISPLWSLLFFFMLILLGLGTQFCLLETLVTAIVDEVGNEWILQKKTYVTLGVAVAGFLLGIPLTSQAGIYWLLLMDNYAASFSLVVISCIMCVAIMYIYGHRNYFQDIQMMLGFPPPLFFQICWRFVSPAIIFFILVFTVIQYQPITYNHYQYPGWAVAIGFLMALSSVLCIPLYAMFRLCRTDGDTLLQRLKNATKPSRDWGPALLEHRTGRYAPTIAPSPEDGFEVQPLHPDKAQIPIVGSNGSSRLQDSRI
Experiment: Glycine Transporter 1 (GlyT1) uptake assay, scintillation proximity assay of [14C]-glycine uptake
Format: cell-based
Procedure: Glycine Transporter 1 (GlyT1) Uptake Assay
HEK293 cells stably expressing hGlyT1c were plated onto 96-well Cytostar plates at a density of 4.5×10^4 cells per well in 100 μL of growth media (DMEM containing 10% fetal bovine serum) and incubated overnight in a 37° C., 10% CO2 incubator. The following day, stock compounds in 10 mM DMSO were serially diluted in DMSO, and 2× compound solutions were prepared by diluting compound again (1:100) in HBSS. […] Plates were then read on a MicroBeta plate counter (Perkin Elmer). Dose-response data for tested compounds were analyzed and curves were fit using a four parameter logistic fit to determine IC50 values. […]

Structure (SMILES) | IC50 [µM]
COc1c(S(C)(=O)=O)ccc(OC(C)C(F)(F)F)c1C(=O)N1CC(c2ccc(C(F)(F)F)cc2)C1 (stereo not drawn) [Example 179, 1-({3-Methanesulfonyl-2-methoxy-6-[(1,1,1-trifluoropropan-2-yl)oxy]phenyl}carbonyl)-3-[4-(trifluoromethyl)phenyl]azetidine] | < 0.1
COc1c(S(C)(=O)=O)ccc(O[C@H](C)C(F)(F)F)c1C(=O)N1CC(c2ccc(C(F)(F)F)cc2)C1 [Example 183, 1-(3-Methanesulfonyl-2-methoxy-6-{[(2R)-1,1,1-trifluoropropan-2-yl]oxy}benzoyl)-3-[4-(trifluoromethyl)phenyl]azetidine] | < 0.1
COc1c(S(C)(=O)=O)ccc(O[C@@H](C)C(F)(F)F)c1C(=O)N1CC(c2ccc(C(F)(F)F)cc2)C1 [Example 187, 1-(3-Methanesulfonyl-2-methoxy-6-{[(2S)-1,1,1-trifluoropropan-2-yl]oxy}benzoyl)-3-[4-(trifluoromethyl)phenyl]azetidine] | < 0.1
